{"sequences": {"note": "The chains behind the UniProt entries cited, without tags or fusion partners.", "UniProt Q00987, whole entry": "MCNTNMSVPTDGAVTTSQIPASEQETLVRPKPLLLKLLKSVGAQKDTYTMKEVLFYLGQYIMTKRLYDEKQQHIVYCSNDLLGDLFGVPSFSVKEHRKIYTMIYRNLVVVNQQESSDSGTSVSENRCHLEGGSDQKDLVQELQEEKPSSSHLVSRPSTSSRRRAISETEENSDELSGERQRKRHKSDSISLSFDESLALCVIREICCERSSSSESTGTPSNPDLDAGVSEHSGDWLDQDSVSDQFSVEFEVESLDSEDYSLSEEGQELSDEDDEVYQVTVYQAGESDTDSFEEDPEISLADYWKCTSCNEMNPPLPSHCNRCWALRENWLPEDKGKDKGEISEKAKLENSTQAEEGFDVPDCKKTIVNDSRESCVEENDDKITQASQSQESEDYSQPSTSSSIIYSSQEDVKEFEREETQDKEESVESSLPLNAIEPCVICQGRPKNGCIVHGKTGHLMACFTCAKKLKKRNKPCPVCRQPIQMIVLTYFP"}, "source": "patent US9371280B2", "about": "“Substituted pyrrolidine-2-carboxamides” (Hoffmann-La Roche Inc., priority 2012, dated 2016)", "note": "Where a name gives a salt, the structure may show the parent alone."}
{"biological_target": "interaction between p53 and MDM2 proteins (recombinant GST-tagged MDM2) (Homo sapiens, UniProt Q00987)", "test": "HTRF assay of inhibition of the p53-MDM2 interaction (GST-MDM2 / biotinylated p53 peptide);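 also: FRET read-out from Eu-labelled anti-GST antibody to streptavidin-APC, with 90 nM N-terminally biotinylated p53 peptide and 160 ng/ml GST-MDM2 in Tris-borate saline containing 1 mM DTT, 384-well format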", "type": "binding", "conditions": "0.02% BSA, 37° C. 1 h", "protocol": "The ability of the compounds to inhibit the interaction between p53 and MDM2 proteins was measured by an HTRF (homogeneous time-resolved fluorescence) assay in which recombinant GST-tagged MDM2 binds to a peptide that resembles the MDM2-interacting region of p53 (Lane et al.). Binding of GST-MDM2 protein and p53-peptide (biotinylated on its N-terminal end) is registered by the FRET (fluorescence resonance energy transfer) between Europium (Eu)-labeled anti-GST antibody and streptavidin-conjugated Allophycocyanin (APC).\nIncubate at 37° C. for 1 h. […] If not specified, the reagents were purchased from Sigma Chemical Co.", "units": {"IC50": "µM"}}
{"molecule": "COc1cc(C(=O)OCCOC(=O)[C@H](C)NC(=O)OC(C)(C)C)ccc1NC(=O)[C@@H]1N[C@@H](CC(C)(C)C)[C@](C#N)(c2ccc(Cl)cc2F)[C@H]1c1cccc(Cl)c1F", "note": "[Example 3, 4-{[(2R,3S,4R,5S)-3-(3-Chloro-2-fluoro-phenyl)-4-(4-chloro-2-fluoro-phenyl)-4-cyano-5-(2,2-dimethyl-propyl)-pyrrolidine-2-carbonyl]-amino}-3-methoxy-benzoic acid 2-((S)-2-tert-butoxycarbonylamino-propionyloxy)-ethyl ester]", "IC50": 0.0144}
{"molecule": "4-{[(2R,3S,4R,5S)-4-(4-Chloro-2-fluoro-phenyl)-3-(3-chloro-2-fluoro-phenyl)-4-cyano-5-(2,2-dimethyl-propyl)-pyrrolidine-2-carbonyl]-amino}-3-methoxy-benzoic acid, mPEG-2000 amide [Example 81]", "IC50": 0.0284}
{"molecule": "4-{[(2R,3S,4R,5S)-4-(4-Chloro-2-fluoro-phenyl)-3-(3-chloro-2-fluoro-phenyl)-4-cyano-5-(2,2-dimethyl-propyl)-pyrrolidine-2-carbonyl]-amino}-3-methoxy-benzoic acid, mPEG-1000 ester [Example 80]", "IC50": 0.0346}
{"molecule": "4-{[(2R,3S,4R,5S)-4-(4-Chloro-2-fluoro-phenyl)-3-(3-chloro-2-fluoro-phenyl)-4-cyano-5-(2,2-dimethyl-propyl)-pyrrolidine-2-carbonyl]-amino}-3-methoxy-benzoic acid, mPEG-1000 amide [Example 79]", "IC50": 0.0345}
{"molecule": "4-{[(2R,3S,4R,5S)-4-(4-Chloro-2-fluoro-phenyl)-3-(3-chloro-2-fluoro-phenyl)-4-cyano-5-(2,2-dimethyl-propyl)-pyrrolidine-2-carbonyl]-amino}-3-methoxy-benzoic acid 2-[4-(2-hydroxy-ethyl)-piperazin-1-yl]-ethyl ester, mPEG-750 ester, hydrochloride salt [Example 63]", "IC50": 0.0148}
{"molecule": "4-{[(2R,3S,4R,5S)-4-(4-Chloro-2-fluoro-phenyl)-3-(3-chloro-2-fluoro-phenyl)-4-cyano-5-(2,2-dimethyl-propyl)-pyrrolidine-2-carbonyl]-amino}-3-methoxy-benzoic acid, mPEG-2000 ester [Example 82]", "IC50": 0.04}
{"molecule": "4-{[(2R,3S,4R,5S)-4-(4-Chloro-2-fluoro-phenyl)-3-(3-chloro-2-fluoro-phenyl)-4-cyano-5-(2,2-dimethyl-propyl)-pyrrolidine-2-carbonyl]-amino}-3-methoxy-benzoic acid, mPEG-350 ester, trifluoroacetate salt [Example 58]", "IC50": 0.0144}
{"molecule": "4-{[(2R,3S,4R,5S)-4-(4-Chloro-2-fluoro-phenyl)-3-(3-chloro-2-fluoro-phenyl)-4-cyano-5-(2,2-dimethyl-propyl)-pyrrolidine-2-carbonyl]-amino}-3-methoxy-benzoic acid, mPEG-550 ester, hydrochloride [Example 59]", "IC50": 0.0249}
{"molecule": "CN[C@@H](C)C(=O)N[C@H](C(=O)OCCOC(=O)c1ccc(NC(=O)[C@@H]2N[C@@H](CC(C)(C)C)[C@](C#N)(c3ccc(Cl)cc3F)[C@H]2c2cccc(Cl)c2F)c(OC)c1)C(C)C", "note": "[Example 34, 4-{[(2R,3S,4R,5S)-4-(4-Chloro-2-fluoro-phenyl)-3-(3-chloro-2-fluoro-phenyl)-4-cyano-5-(2,2-dimethyl-propyl)-pyrrolidine-2-carbonyl]-amino}-3-methoxy-benzoic acid 2-[(S)-3-methyl-2-((S)-2-methylamino-propionylamino)-butyryloxy]-ethyl ester, hydrochloride]", "IC50": 0.0144}
{"molecule": "COc1cc(C(=O)OCC(=O)NCCOCCO)ccc1NC(=O)[C@@H]1N[C@@H](CC(C)(C)C)[C@](C#N)(c2ccc(Cl)cc2F)[C@H]1c1cccc(Cl)c1F", "note": "[Example 74, 4-{[(2R,3S,4R,5S)-4-(4-Chloro-2-fluoro-phenyl)-3-(3-chloro-2-fluoro-phenyl)-4-cyano-5-(2,2-dimethyl-propyl)-pyrrolidine-2-carbonyl]-amino}-3-methoxy-benzoic acid [2-(2-hydroxy-ethoxy)-ethylcarbamoyl]-methyl ester]", "IC50": 0.0345}
{"molecule": "4-{[(2R,3S,4R,5S)-4-(4-Chloro-2-fluoro-phenyl)-3-(3-chloro-2-fluoro-phenyl)-4-cyano-5-(2,2-dimethyl-propyl)-pyrrolidine-2-carbonyl]-amino}-3-methoxy-benzoic acid 2-[4-(2-hydroxy-ethyl)-piperazin-1-yl]-ethyl ester, PEG-400 ester, hydrochloride salt [Example 62]", "IC50": 0.0293}
